Experimental data published in patent US9526785B2, “Pharmaceuticals for oral delivery” (Enteris BioPharma, Inc., priority 2013, dated 2016).

Test: Kanamycin and tobramycin plasma PK after IV bolus in dogs
Format: in vivo, Beagle dogs
Conditions: single IV bolus 0.10 mg
Description: Adult Beagle dogs weighing approximately 10 to 15 kg were used in the study. The animals were housed at Sinclair Research Center, Columbia, Mo. either individually or in pairs in over-sized dog runs. […] A 12-hour light/12-hour dark photoperiod was maintained. Room temperature was set to be maintained at 20±5° C. Relative humidity was monitored but not controlled. Animal room and pen cleaning were performed according to the testing facility (Sinclair) SOPs.
Animals were fasted overnight prior to drug administration and throughout the blood collection period.
Adult female Beagle dogs, weighing 9-15 kg were used in the oral and IV studies. Dogs were fasted overnight before the beginning of each study but were allowed free access to water. On the day of the study, one pre-dose blood sample of 3 mL was collected from each animal.
After administration of the drug, 3 mL blood samples were collected from the brachial vein at various time-points up to 240 minutes (4 hours) post-administration. Blood samples were collected into new heparinized monovette sampling syringes. The samples were placed on ice before being centrifuged for 10 minutes at approximately 2750 rpm at 2-8° C. Each tube was labeled with the dog ID # and time-point, and they were stored at −20° C. pending shipment.
Plasma samples were diluted appropriately with the kit assay buffer.
The maximum plasma concentration (Cmax) values and their times of occurrence (Tmax) were obtained directly from the plasma concentration vs. time profiles. The areas under the plasma concentration-time curves (AUClast) were estimated by the linear trapezoidal rule from time zero to the time of the last observed plasma concentration.

## NC[C@H]1O[C@H](O[C@H]2[C@H](O)[C@@H](O[C@H]3O[C@H](CO)[C@@H](O)[C@H](N)[C@H]3O)[C@H](N)C[C@@H]2N)[C@H](O)[C@@H](O)[C@@H]1O [Kanamycin]
10 min
  Plasma Concentration, individual dogs: 70.40 ng/mL
15 min
  Plasma Concentration, individual dogs: 56.24 ng/mL and 54.88 ng/mL
20 min
  Plasma Concentration, individual dogs: 41.85 ng/mL

Values joined by “and” are separate entries in the source; they are usually repeats but may differ in a detail not shown here. Equal entries are not always repeated.
